Consider two molecules from patent publication US6713488B2 (priority 2000, dated 2004).

Sequences of proteins named here, by UniProt entry; tags and fusion partners are left off.
UniProt P35372, whole entry: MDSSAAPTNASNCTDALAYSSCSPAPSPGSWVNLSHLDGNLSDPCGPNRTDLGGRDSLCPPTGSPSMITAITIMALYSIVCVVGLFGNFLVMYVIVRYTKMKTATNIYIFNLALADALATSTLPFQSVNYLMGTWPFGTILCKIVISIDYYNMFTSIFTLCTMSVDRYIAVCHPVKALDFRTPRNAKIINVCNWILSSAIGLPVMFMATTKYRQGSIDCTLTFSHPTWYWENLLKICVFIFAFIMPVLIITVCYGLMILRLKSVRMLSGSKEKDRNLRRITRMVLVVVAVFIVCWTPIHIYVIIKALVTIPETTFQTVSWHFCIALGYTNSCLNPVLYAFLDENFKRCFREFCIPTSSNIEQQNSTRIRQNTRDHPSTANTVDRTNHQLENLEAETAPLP

For experiment [1], the target named is T1, human MOR (Homo sapiens, UniProt P35372).
T1 construct: FLAG (N); expressed in transfected cells; host or cells: HEK 293
The experiment is classed as cell-based.

Experiment [2] addresses T2, μ opioid receptor (Homo sapiens, UniProt P35372).
T2 construct: FLAG (N); expressed in transfected cells
The experiment is classed as binding.

For experiment [3], the target named is T1, human MOR. The experiment is classed as biochemical. Particulars: read-out: IC50 for inhibiting morphine-stimulated 35S-GTPγS binding.
Experiment [4] has as its target T1, human MOR. In kind it is biochemical.

For the molecule `Oc1ccc2c3c1O[C@H]1[C@H](O)CC[C@@]4(O)[C@@H](C2)N(CC2CC2)CC[C@]314` [6β-Naltrexol, 6β-naltrexol], the “effect on forskolin stimulated cAMP levels” value in experiment [1] was “no effect”. In experiment [2], this molecule yielded an inhibitory constant (Ki) of 0.8 ± 0.21 nM. Also, the half-maximal inhibitory concentration (IC50) in experiment [3] was determined as 18 ± 1 nM. Further, in experiment [4], the “% inhibition of inverse agonistic effect of C-CAM” value worked out at 91±9%, the “% inhibition of inverse agonistic effect of β-CNA” value is listed as 68±17% and the “effect on basal 35S-GTPγS binding activity” value is listed as “no significant effect”.

As for `Oc1ccc2c3c1O[C@H]1[C@H](O)CC[C@@]4(O)[C@@H](C2)N(CC2CC2)CC[C@]314` [6α-Naltrexol, 6α-naltrexol], the “effect on forskolin stimulated cAMP levels” value in experiment [1] is “no effect”. The molecule further registered a Ki in experiment [2] of 0.53 ± 0.04 nM. In experiment [4], the “effect on basal 35S-GTPγS binding activity” value was “no significant effect”.
